Reference: publication PMC8661032, “Broad-Spectrum Antibacterial Peptide Kills Extracellular and Intracellular Bacteria Without Affecting Epithelialization” (Frontiers in Microbiology, 2021)
Residues, ends and D or L forms follow the SMILES beside them.

Key:
E. coli = test: Rifampicin (RifR) mutagenesis assay after UV-C; format: cell-based, Escherichia coli; conditions: 20 μg/mL, UV-C 20 mJ/cm2, RifR assay, three independent experiments
Procedure: The rifampicin (Rif^R) mutagenesis assay was performed as described ([Nedal et al., 2020]). Briefly, an overnight culture of E. coli was diluted 1:1,000 and grown until an OD600 of 0.01. APIM-peptides (20 μg/ml) were added to LB media with glass beads (for uniform distribution of APIM-peptides) and incubated for 30 min at 37°C. The pellets were next collected, resuspended in 500 μl PBS, and exposed to UV-C (20 mJ/cm^2) in a six-well plate at 4°C. The unexposed bacteria (-UV) were otherwise handled exactly like the UV-exposed bacteria. Next, the cells were resuspended in LB media and incubated in a rotary shaker at 37°C at 250 rpm for 2 h before being harvested, diluted, and plated on LB with soft agar with and without rifampicin (100 μg/ml). Mutation frequency, Rif^R/10^8, is obtained as follows: (number of colonies on the rifampicin plate (Rif^R)/(number of colonies on LB plates without antibiotics), per milliliter of bacterial suspension.
Supplementary Figure S3 (related to Table 2): Peptide 2 (betatide) reduces UV-induced […]
mutagenesis in E. coli more efficiently than the other peptide variants.
Increase in mutation frequencies after treatment with UV-C (20 mJ/cm2) relative to spontaneous mutations frequencies using the RifR assay were determined. This increase is set to 100% for untreated control, and % reduction after addition of peptides 1-5 (20 μg/mL) are shown. […]

[1] = system: S. aureus ATCC 29213 and SO-SAU19-1; conditions: S. aureus ATCC 29213, serial passage, parallel 2, after 30 days

For `CC[C@H](C)[C@H](NC(=O)CNC(=O)[C@H](CCCCN)NC(=O)[C@@H](NC(=O)[C@H](CC(C)C)NC(=O)[C@H](Cc1c[nH]c2ccccc12)NC(=O)[C@H](CCCNC(=N)N)NC(=O)[C@H](CC(=O)O)NC(=O)[C@H](CCSC)NC(C)=O)C(C)C)C(=O)N[C@@H](CC(C)C)C(=O)N[C@@H](CCC(N)=O)C(=O)N[C@@H](Cc1c[nH]c2ccccc12)C(=O)N[C@@H](CCCNC(=N)N)C(=O)N[C@@H](CCCCN)C(=O)N[C@H](C(=O)N[C@@H](CCCNC(=N)N)C(=O)N[C@@H](CCCNC(=N)N)C(=O)N[C@@H](CCCNC(=N)N)C(=O)N[C@@H](CCCNC(=N)N)C(=O)N[C@@H](CCCNC(=N)N)C(=O)N[C@@H](CCCNC(=N)N)C(=O)N[C@@H](CCCNC(=N)N)C(=O)N[C@@H](CCCNC(=N)N)C(=O)N[C@@H](CCCNC(=N)N)C(=O)N[C@@H](CCCNC(=N)N)C(=O)N[C@@H](CCCNC(=N)N)C(N)=O)[C@@H](C)CC` [betatide] (Ac-MDRWLVKGILQWRKIRRRRRRRRRRR-NH2), the “UV-induced mutation frequencies relative to control” value (E. coli) was “significantly reduced” and the resistance development [1] was “no detectable resistance development”.
